Measurements taken from EP1200059B1, “SKIN CARE COMPOSITION” (UNILEVER PLC, priority 1999, dated 2001).

Molecular target: T1, lecithin retinol acyl transferase (LRAT) (Bos taurus, UniProt Q9BGL2)
T1 sequence (Q9BGL2 1-230): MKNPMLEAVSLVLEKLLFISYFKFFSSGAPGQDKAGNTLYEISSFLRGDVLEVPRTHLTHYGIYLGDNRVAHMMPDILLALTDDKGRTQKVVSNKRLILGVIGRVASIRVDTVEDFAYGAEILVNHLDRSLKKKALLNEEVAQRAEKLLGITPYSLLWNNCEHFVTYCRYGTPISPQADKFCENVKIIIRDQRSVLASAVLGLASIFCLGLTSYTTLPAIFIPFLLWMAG
Assay: in vitro Microsomal Assay of retinol esterification, LRAT catalysed (retinyl laurate formation)
Settings: read-out: % INHIBITION, LRAT

inhibition at 100 µM: 71%
SMILES: CC(C)(O)CCCC1=CCC(C=O)CC1 (stereo not shown) [Lyral]
